Binding of CDR-mutated scFvs to a peptide of the spike HR2 region

Target peptide (SARS-CoV-2 spike, HR2 region): PDVDLGDISGINAS

Parent: Ab-14, a human scFv built as VH, the linker GGGGSGGGGSGGGGS, VL. Only the CDRs of the heavy chain vary.
VH: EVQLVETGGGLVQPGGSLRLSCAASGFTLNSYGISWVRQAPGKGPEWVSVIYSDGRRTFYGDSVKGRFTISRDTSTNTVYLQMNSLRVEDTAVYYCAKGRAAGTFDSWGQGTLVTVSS
VL: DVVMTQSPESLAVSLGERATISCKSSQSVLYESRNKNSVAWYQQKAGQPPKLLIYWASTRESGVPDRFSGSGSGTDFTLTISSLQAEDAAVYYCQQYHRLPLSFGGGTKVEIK

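Designed CDR sequences, proposed from the first random library and measured here. Group labels follow the data file (En: ensemble of fine-tuned language models; HC: hill climbing; Gen: genetic algorithm; Gibbs: Gibbs sampling; a sequence that several methods proposed may carry one label only). Affinity was read by AlphaSeq, a pooled yeast mating assay with surface-displayed partners. Pairs that bind mate more often; barcode pairs of the diploids are counted by sequencing. Each replicate has its own calibration line, from reference interactions of the BCL2 family. Mating was done six times.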

Sequences are complete VH domains.
Variants here have more than six changes.
The Kd shown is the geometric mean over detected replicates; a lower Kd is a better binder.
A pair that was not seen in any replicate is written "no signal"; this usually means weak binding, but a binder can also be missed.
Nonspecific signal, from three strains lacking the peptide, appeared in 1% of pairings of all heavy chain designs, centred on 120 nM (5% of these signals below 7.0 nM); values are not corrected for it.
Of ten entries with the parent sequence, four were seen in most replicates (averages 2.2 nM to 240 nM), three in one and three in none, so single entries are noisy.
The authors averaged sequences with at least three values out of six and counted those with two or fewer as poor binders.
A sequence measured in both rounds can read differently, since the two assays cover different ranges.

VH	group	Kd (apparent)	replicates with signal
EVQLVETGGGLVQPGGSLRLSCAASGFNLDEYGISWVRQAPGKGPEWVSVIYADGMRTAYADSVKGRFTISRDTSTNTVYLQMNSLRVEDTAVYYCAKGEVAGTFDLWGQGTLVTVSS	En_Gen	810 pM	6/6
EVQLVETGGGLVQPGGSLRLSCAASGFDLNEYGISWVRQAPGKGPEWVSVIYADGRRTAYSDDVKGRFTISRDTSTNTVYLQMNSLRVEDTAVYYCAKGNQAGTFDVWGQGTLVTVSS	En_Gen	16 nM	6/6
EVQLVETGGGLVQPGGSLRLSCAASGFDIEEYGISWVRQAPGKGPEWVSVIYADGVRTMYADDVKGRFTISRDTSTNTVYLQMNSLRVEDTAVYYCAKGISKTYSLTWGQGTLVTVSS	En_Gibbs	no signal	0/6
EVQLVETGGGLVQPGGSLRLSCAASGFDLNEYGISWVRQAPGKGPEWVSVIYADGVRTYYADSVKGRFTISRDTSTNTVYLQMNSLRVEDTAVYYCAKGEVAGTFDVWGQGTLVTVSS	En_Gen	1.1 nM	6/6
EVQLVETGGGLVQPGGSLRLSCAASGFNLNEYGISWVRQAPGKGPEWVSVIYADGRRTFYSDSVKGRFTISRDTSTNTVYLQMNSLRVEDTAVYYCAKGEIGGTFDVWGQGTLVTVSS	En_HC	900 pM	6/6
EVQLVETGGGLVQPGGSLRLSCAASGFDLNEYGISWVRQAPGKGPEWVSVIYADGRRTFYADSVKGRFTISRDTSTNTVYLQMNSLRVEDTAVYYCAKGEEAGTFDMWGQGTLVTVSS	En_HC	320 pM	6/6
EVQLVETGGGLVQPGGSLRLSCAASGFDLNEYGISWVRQAPGKGPEWVSVIYADGRRTFYADSVKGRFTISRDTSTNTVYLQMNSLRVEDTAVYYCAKGNTAGTFNVWGQGTLVTVSS	En_HC	400 pM	6/6
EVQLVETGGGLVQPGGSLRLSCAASGFDLNEYGISWVRQAPGKGPEWVSVIYADGMRTAYADSVKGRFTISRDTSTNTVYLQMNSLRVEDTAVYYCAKGNVAGTFDQWGQGTLVTVSS	En_Gen	370 pM	6/6
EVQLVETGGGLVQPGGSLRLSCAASGFDLNEYGISWVRQAPGKGPEWVSVIYADGMRTFYTDSVKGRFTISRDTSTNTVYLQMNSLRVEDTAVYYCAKGQLAGTFDVWGQGTLVTVSS	En_HC	540 pM	6/6
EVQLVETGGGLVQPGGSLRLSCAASGFGLDEYGISWVRQAPGKGPEWVSVIYADGRRTFYADSVKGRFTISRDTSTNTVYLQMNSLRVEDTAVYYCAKGEAAGTFDIWGQGTLVTVSS	En_HC	480 pM	6/6
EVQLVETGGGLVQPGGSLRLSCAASGFNLAEYGISWVRQAPGKGPEWVSVIYADGRRVYYANAVKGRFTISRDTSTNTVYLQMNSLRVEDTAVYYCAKGKNGENFSFWGQGTLVTVSS	En_Gibbs	no signal	0/6
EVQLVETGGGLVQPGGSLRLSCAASGFDLQEYGISWVRQAPGKGPEWVSVIYADGLRTAYGNSVKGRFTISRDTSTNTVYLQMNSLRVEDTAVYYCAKGQSNALITVWGQGTLVTVSS	En_Gibbs	no signal	0/6
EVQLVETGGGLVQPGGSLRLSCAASGFSLEEYGISWVRQAPGKGPEWVSVIYADGMRTFYTDKVKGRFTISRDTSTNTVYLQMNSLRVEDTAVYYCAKGNLDDQEGYWGQGTLVTVSS	En_Gibbs	no signal	0/6
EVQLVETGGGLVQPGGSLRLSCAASGFDLDEYGISWVRQAPGKGPEWVSVIYADGMRTAYADKVKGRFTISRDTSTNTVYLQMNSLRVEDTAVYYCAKGEVAGTFDLWGQGTLVTVSS	En_Gen	520 nM	1/6
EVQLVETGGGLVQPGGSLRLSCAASGFDLNEYGISWVRQAPGKGPEWVSVIYADGLRTFYSDSVKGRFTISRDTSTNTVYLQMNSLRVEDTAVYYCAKGEFAGTFDVWGQGTLVTVSS	En_HC	580 pM	6/6
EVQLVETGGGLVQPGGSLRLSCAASGFDLEDYGISWVRQAPGKGPEWVSVIYADGKRSFVSNNVKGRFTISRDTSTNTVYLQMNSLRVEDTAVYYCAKGQQGNFFSMWGQGTLVTVSS	En_Gibbs	340 nM	1/6
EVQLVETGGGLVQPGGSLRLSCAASGFDLNEYGISWVRQAPGKGPEWVSVIYADGVRTFYDDSVKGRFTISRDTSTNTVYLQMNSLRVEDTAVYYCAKGQLAGTFDLWGQGTLVTVSS	En_HC	420 pM	6/6
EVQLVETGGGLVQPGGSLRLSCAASGFDLDEYGISWVRQAPGKGPEWVSVIYADGMRTAYADSVKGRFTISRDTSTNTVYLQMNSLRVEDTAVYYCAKGGNAGTFDLWGQGTLVTVSS	En_Gen	540 pM	6/6
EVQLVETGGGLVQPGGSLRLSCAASGFDLNEYGISWVRQAPGKGPEWVSVIYADGMRTAYADDVKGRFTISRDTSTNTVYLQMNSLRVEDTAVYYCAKGNQAGTFDQWGQGTLVTVSS	En_Gen	880 pM	6/6
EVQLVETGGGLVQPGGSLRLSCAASGFDLNEYGISWVRQAPGKGPEWVSVIYADGRRTVYADSVKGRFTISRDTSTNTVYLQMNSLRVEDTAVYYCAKGNVAGTFDQWGQGTLVTVSS	En_Gen	100 pM	6/6
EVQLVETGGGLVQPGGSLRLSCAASGKDIEEYGVSWVRQAPGKGPEWVSVIYADGKRNAYANKVKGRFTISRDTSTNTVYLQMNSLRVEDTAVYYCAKGKNAGAFVDWGQGTLVTVSS	En_Gibbs	no signal	0/6

The first 2 entries again:

VH	group	Kd (apparent)	replicates with signal
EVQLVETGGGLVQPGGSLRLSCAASGFNLDEYGISWVRQAPGKGPEWVSVIYADGMRTAYADSVKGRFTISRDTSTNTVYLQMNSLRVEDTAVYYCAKGEVAGTFDLWGQGTLVTVSS	En_Gen	810 pM	6/6
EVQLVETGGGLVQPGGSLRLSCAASGFDLNEYGISWVRQAPGKGPEWVSVIYADGRRTAYSDDVKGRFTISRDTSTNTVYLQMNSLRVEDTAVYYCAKGNQAGTFDVWGQGTLVTVSS	En_Gen	16 nM	6/6

The measurements come from Li et al. 2023 (doi:10.1038/s41467-023-39022-2) through the FLAb antibody collection.